# Experimental data as given in article PMC5428233, “Cross-beta nanostructures based on dinaphthylalanine Gd-conjugates loaded with doxorubicin” (Scientific Reports, 2017).
# Entries after “also recorded” stand apart in the source; their conditions may differ.
# Key:
# [1] = Transmission electron microscopy of self-assembled conjugates; format: physicochemical; conditions: 5.0 mg/mL solution dried on grid, phosphotungstic acid stain
# [2] = Water proton relaxation measurements / NMRD profiles; format: physicochemical; conditions: 25.0 mg/mL (high concentration), 298 K
# Source text: The paramagnetic relaxivity (r1p) of Gd (III) complexes is given by:1 r1p∝1/T1MH=Kf(τR) where K is a constant related to the strength of the dipolar interaction between the protons and the electronic magnetic moment, and τR is the correlation time associated with the reorientation of the Gd-H magnetic vector. This means that slowly moving high molecular weight systems are endowed with higher relaxivity than rapidly reorienting low molecular weight ones. In the case of self assembling Gd-containing systems, the extent of aggregation may be evaluated through the measure of the water proton longitudinal relaxation rate of its aqueous solution. […] NMRD profiles were acquired below (black circles) and above (white ones) the CAC values determined by ANS titration and ^1HNMR. […] Data were analyzed using the Solomon-Bloembergen-Morgan model, [18], considering one water molecule in the inner coordination sphere (q = 1) and fixing the exchange lifetime (τM) to a reliable value ([…]) on the basis of those previously reported for mono-amido DOTA derivatives[19]–[22]. The quantitative analysis of the NMRD profile of the aggregated form was not satisfactory when the simple inner- outer-sphere model was used, so the Lipari-Szabo approach was used for the description of the rotational dynamics. […]
substance,measurement,setting,value
Gd-DOTA-L6-F2 [reference compound],supramolecular aggregation / morphology in TEM images,[1],do not show any supramolecular aggregate; also recorded: unaggregated form
same,aggregation state from NMRD profile and τR,[2],inability of the system to self-aggregate even at high concentration
